The list is not random: actives were taken first. Their share in the collection is about 1.9%.
PDI inh: inhibitors of human PDI, primary screen, biochemical, turbidity, single point, plate reader; Protein disulfide-isomerase (Homo sapiens), P07237; PDI insulin aggregation turbidity, A650, 90 min; inhibition, % at 10 µM; 0.052% of 350,000 active; AID 588391, 2011;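 active = mean inhibition across replicates of 30% or more, whatever share of single replicates reach that level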
ERp5 inh: inhibitors of ERp5-driven insulin aggregation, primary screen, biochemical, turbidity, absorbance 650 nm, single point. 90 min. 0.05% of 350,000 active. Protein disulfide-isomerase A6 (Homo sapiens), Q15084. inhibition, % at 9.99 µM;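 active = mean replicate inhibition above about 25%, with every replicate also reaching it, limit read from the data, passing the limit was not always enough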
FGF22 binding: binders of human FGF22 protein, primary screen, FGF22 synaptogenesis inhibitor project, biophysical, thermal shift, single point. Fibroblast growth factor 22 (Homo sapiens), Q9HCT0. recombinant FGF22 thermal shift, SYPRO orange fluorescence; percent of sucrose octasulfate shift, DMSO zero. activity (Tm shift, normalised), % at 9.99 µM. 1.5% of 340,000 active;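 active = mean Tm shift, scaled 0 neutral to 100 positive control, at about 1.3% or above, every replicate too, limit read from the data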
PglD inh: C. jejuni PglD acetyltransferase inhibitors, primary screen, biochemical, DTNB colorimetric, single point | UDP-N-acetylbacillosamine N-acetyltransferase PglD (Campylobacter jejuni) | purified PglD enzyme, DTNB colorimetric CoA detection | inhibition, % at 12.5 µM | 0.098% of 360,000 active; in the data active = inhibition above about 16%, passing the limit was not always enough
ARNT TACC3 PPI: disruptors of ARNT/TACC3 protein interaction, primary screen, biochemical, AlphaScreen, single concentration | AlphaScreen His-ARNT PAS-B/GST-TACC3 binding, luminescence; TACC3 fragment carries E629A point mutation | inhibition, % at 9.99 µM | 0.66% of 390,000 active;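 active = mean inhibition of replicates at least 50% and at least half of replicates each reaching 50%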;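 also: 0% = complete ARNT plus TACC3 wells and 100% = ARNT alone without TACC3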
Yeast UUG start: modulators of start codon recognition fidelity in yeast; S. cerevisiae UUG-firefly luciferase reporter, luminescence/redox ratio; AID 602363; 350,000 tested, 0.13% active; activity score, % at 18.7 µM;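 active = replicate mean at a twofold rise or more, about +100% in these data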;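 also: firefly luciferase made from a UUG start codon reports start codon fidelity; reporter light over untreated wells divided by growth signal over untreated wells; some hits fall short of that in this replicate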
AlphaScreen ctr: AlphaScreen signal interference compounds, dose response, artefact control for ARNT-TACC3 interaction inhibitor project, biochemical, luminescence, cherry-pick | shares compounds with ARNT TACC3 PPI | His-ARNT PASB-GST AlphaScreen artifact counter-screen | AC50, µM (highest dose often 68 µM), inactives show at the highest dose activity change, negative = signal decrease | 50% of 1,200 active;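 active = every separate test run was called active for a drop in luminescence, with AC50 within twice the top valid dose, actives reach about 71 µM in these data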
* = called active by the depositor; · = not tested or not shown.

Under each structure – PDI inh	ERp5 inh	FGF22 binding	PglD inh	ARNT TACC3 PPI	Yeast UUG start	AlphaScreen ctr
1. O=C(N[C@@H]1CC[C@H](CCn2cc(-c3ccccn3)nn2)O[C@H]1CO)c1ccncc1
  ·	-1.5	-0.2	3.3	56.5*	-13.3	31.2µM*
2. O=C(C[C@H]1C=C[C@@H](NC(=O)CN2CCOCC2)[C@H](CO)O1)NC1CCCCC1
  ·	2.2	0.4	-3.5	-15.9	2.4	·
3. C[C@@H]1CN([C@H](C)CO)C(=O)c2cccc(NS(=O)(=O)c3cccs3)c2O[C@@H]1CN(C)CC1CCCCC1
  ·	4.8	-0.4	-2.0	-0.2	-0.3	·
4. CO[C@H]1CN(C)C(=O)c2cc(NC(=O)c3ccno3)ccc2OC[C@@H](C)NC[C@@H]1C
  ·	1.9	0.1	-4.9	1.0	4.7	·
5. Cc1noc(C)c1S(=O)(=O)Nc1cccc2c1O[C@H](CN(C)Cc1ccc(C(=O)O)cc1)[C@H](C)CN([C@H](C)CO)C2=O
  ·	8.8	-0.4	0.9	-6.9	4.8	·
6. C[C@@H]1CN([C@H](C)CO)C(=O)c2cc(NC(=O)CCC(F)(F)F)ccc2O[C@@H](C)CCCCO[C@@H]1CN(C)S(=O)(=O)c1cccs1
  ·	-1.2	-0.2	-1.3	-8.1	19.9	·
7. C[C@@H]1CCCCO[C@@H](CN(C)Cc2ccc(C(=O)O)cc2)[C@@H](C)CN([C@H](C)CO)C(=O)c2cc(NS(=O)(=O)c3ccc(Cl)cc3)ccc2O1
  ·	-2.2	-4.7	-2.2	-3.0	-0.7	·
8. O=C(N[C@H]1CC[C@@H](CCn2cc(-c3ccccn3)nn2)O[C@H]1CO)c1ccccc1
  ·	-2.6	0.6	5.1	81.4*	-8.4	33.2µM*
9. CC(C)NC(=O)N[C@H]1CC[C@H](CC(=O)NC2Cc3ccccc3C2)O[C@@H]1CO
  ·	1.1	0.5	-0.8	1.1	7.2	·
10. Cc1c(NC(=O)c2cccnc2C(=O)O)cccc1C(=O)O
  4.6	·	·	·	33.6*	·	3.5%
11. CCN(CC)C(=O)[C@H]1C[C@H](CC(=O)NCc2ccc(OC)c(OC)c2)C(=O)N2CCc3c([nH]c4ccc(Cl)cc34)[C@]12C
  4.6	-2.1	0.0	-2.1	26.6*	-10.2	-2.7%
12. CCN(CC)C(=O)[C@H]1CC(CC(=O)NCc2ccc(OC)c(OC)c2)C(=O)N2CCc3c([nH]c4ccccc34)[C@]12C (some centres undefined)
  13.7	-4.0	-0.2	0.9	0.9	-5.3	·
13. CCn1c(Cc2ccccc2)nnc1SCC(=O)Nc1ccc(N)cc1
  12.4	·	·	-1.6	57.2*	-11.2	-10.2%
14. CCn1c(Cc2ccccc2)nnc1SCC(=O)Nc1ccc(OC)cc1
  -4.5	·	·	2.4	-3.2	-23.3	·
15. Cc1[nH][nH]c(=O)c1C(c1c(C)[nH][nH]c1=O)c1cn(Cc2cccc3ccccc23)c2ccccc12
  2.5	·	·	-2.4	26.4*	-27.6	46.5µM*
16. Cc1[nH][nH]c(=O)c1C(c1c(C)[nH][nH]c1=O)c1cn(C)c2ccccc12
  -9.2	2.6	0.7	·	36.1	·	·
17. CCSc1nnc(NC(=O)C2CCCCC2C(=O)O)s1 (centres undefined)
  -8.2	·	·	·	active	·	-0.1%
18. C[C@@H]1CN([C@@H](C)CO)C(=O)Cc2cc(NS(=O)(=O)c3ccc(F)cc3)ccc2O[C@H]1CN(C)C(=O)NC1CCCCC1
  ·	-1.2	-0.1	9.3	-6.5	25.3	·
19. COc1ccccc1CNC(=O)C[C@@H]1C[C@@H]2c3cc(NC(=O)CN(C)C)ccc3O[C@@H]2[C@H](CO)O1
  ·	3.0	-0.1	-0.7	2.4	·	·
20. COc1ccc(C(=O)NNC(=O)Cc2coc3cc(OC)ccc23)cc1
  -5.4	2.9	0.1	-4.4	57.5*	-10.5	-6.8%
21. COc1ccc2c(CC(=O)Nc3ccccc3OC)coc2c1
  7.6	-3.3	-0.1	-1.5	-1.9	-7.5	·
22. CNC[C@H]1Oc2ccc(NS(=O)(=O)c3cccs3)cc2C(=O)N([C@@H](C)CO)C[C@H]1C
  ·	-0.8	0.0	4.4	-1.5	-3.3	·
23. O=S(=O)(c1cccc2cccnc12)N1CCN(Cc2ccc(OCCO)cc2)CC1
  ·	0.1	0.2	1.2	64.2*	-12.8	51.4µM*
24. O=S(=O)(NC1CCN(Cc2ccc(OCCO)cc2)CC1)c1cccc2cccnc12
  ·	-2.1	-0.1	2.2	112.9*	-9.1	24.8µM*
25. O=S(=O)(NC1CCN(Cc2ccc(OCCO)cc2)CC1)c1cc(Cl)ccc1Cl
  ·	5.4	-0.4	-4.2	7.6	2.6	·
26. C[C@@H]1CN([C@@H](C)CO)C(=O)c2cc(C#CC3(O)CCCC3)cnc2O[C@@H]1CN(C)C(=O)Nc1ccc2c(c1)OCO2
  ·	10.8	-0.1	-6.6	1.4	14.5	·
27. c1ccc(-c2nn[nH]n2)nc1
  -0.4	1.5	-0.1	·	66.9*	·	53.4µM*
28. c1ccc(-c2n[nH]c(-c3ccccn3)n2)nc1
  15.9	4.1	-0.1	2.2	59.6*	-35.4	7.5µM*
29. c1ccc(-c2noc(-c3ccno3)n2)nc1
  -4.8	-4.9	0.2	·	·	·	·
30. c1ccc(-c2nn[nH]n2)cc1
  22.7	4.5	0.2	·	-8.1	·	·
31. CN(C)CC(=O)N1[C@H](C#N)[C@H](c2ccc(C#CC3CCCC3)cc2)[C@@H]1CO
  ·	1.4	0.0	-1.8	8.3	1.2	·
32. O=C(NCc1ccccn1)c1ccc(CS(=O)(=O)Cc2ccc(Cl)cc2)o1
  16.4	·	·	-11.2	13.4	-18.8	·
33. Cc1ccccc1CS(=O)(=O)Cc1ccc(C(=O)NCc2ccccn2)o1
  8.1	·	·	-4.0	53.0*	-32.6	-13.2%
34. COc1ccc(Nc2cc3n(c(=O)n2)CCc2cc(OC)c(OC)cc2-3)cc1
  0.7	5.4	-0.3	-4.6	63.1*	-8.8	-29.2%
35. O=C(COC(=O)c1ccc(O)cc1O)Nc1nnc(-c2ccccc2)o1
  9.4	2.8	0.0	0.9	60.4*	-8.8	47µM*
36. O=C(COC(=O)c1ccc(O)cc1O)Nc1ccc2ccccc2c1
  2.7	-2.5	0.4	3.4	1.4	-6.7	·
37. O=C(Nc1ccc(Cl)cc1)N[C@H]1CC[C@@H](CCn2cc(-c3ccccc3F)nn2)O[C@@H]1CO
  ·	0.6	0.0	-0.1	-5.3	-4.6	·
38. CC(C)(C)c1ccc(CNc2nc(-c3ccccn3)nnc2-c2ccccc2)cc1
  ·	·	·	·	·	·	3.73µM*
39. CC(C)(C)c1ccc(-c2nc(NCc3cccnc3)c3ccccc3n2)cc1
  8.1	·	·	·	-5.3	·	·

Random excerpt: 5 entries already listed, in no set order.
Under each structure – PDI inh	ERp5 inh	FGF22 binding	PglD inh	ARNT TACC3 PPI	Yeast UUG start	AlphaScreen ctr
21. COc1ccc2c(CC(=O)Nc3ccccc3OC)coc2c1
  7.6	-3.3	-0.1	-1.5	-1.9	-7.5	·
32. O=C(NCc1ccccn1)c1ccc(CS(=O)(=O)Cc2ccc(Cl)cc2)o1
  16.4	·	·	-11.2	13.4	-18.8	·
26. C[C@@H]1CN([C@@H](C)CO)C(=O)c2cc(C#CC3(O)CCCC3)cnc2O[C@@H]1CN(C)C(=O)Nc1ccc2c(c1)OCO2
  ·	10.8	-0.1	-6.6	1.4	14.5	·
27. c1ccc(-c2nn[nH]n2)nc1
  -0.4	1.5	-0.1	·	66.9*	·	53.4µM*
31. CN(C)CC(=O)N1[C@H](C#N)[C@H](c2ccc(C#CC3CCCC3)cc2)[C@@H]1CO
  ·	1.4	0.0	-1.8	8.3	1.2	·

High-throughput results from PubChem BioAssay.
